According to patent publication US11162937B2, “Patient selection method for inflammation” (Purdue Research Foundation, priority 2013, dated 2021):

Tested on: CIA mice
Experiment: Collagen-induced arthritis (CIA) mice: ^99mTc-EC20 radioimaging, arthritis score and paw thickness under anti-inflammatory therapy
Procedure: Collagen-induced arthritis (CIA) was initiated using established methods on 6-7 week old female DBA/1 mice (Jackson Laboratories) maintained on folate-deficient diet (Harlan-Teklad). Briefly, mice were immunized at the base of the tail with 100 μg bovine type II collagen emulsified in complete Freund's adjuvant (Chondrex, Inc., Redmond, Wash., USA). Mice were then boosted 21 days later with a similar injection of 100 μg bovine type II collagen emulsified in incomplete Freund's adjuvant. After four days, onset of arthritis was synchronized in all mice with an intraperitoneal injection of 25 μg lipopolysaccharide (LPS) dissolved in saline. Three days later mice were distributed equally across control and treatment groups (n=5). Healthy mice and disease control mice received daily intraperitoneal injections of 100 μL saline. […] Arthritis scores were assessed every other day by researchers blinded to the various treatment groups, using the following scoring system: 0=normal; 1=mild, but definite redness and swelling of the ankle or wrist, or apparent redness and swelling limited to individual digits, regardless of the number of affected digits; 2=moderate redness and swelling of ankle or wrist; 3=severe redness and swelling of the entire paw including digits; 4=maximally inflamed limb with involvement of multiple joints. A total score for each mouse was calculated by summing the scores for each of the four paws, allowing a maximum possible score of 16 per animal. Paw thickness was measured with calipers every other day starting on the first day of treatment. On day 3 of treatment, mice were anesthetized with isoflurane and imaged with ^99mTc-EC20 as described below. Mice were again imaged and then euthanized by CO2 asphyxiation on day 11 of treatment.
^99mTc-EC20 was prepared as previously described in C. P. Leamon, M. A. Parker, I. R. Vlahov, L. Xu, J. A. Reddy, M. Vetzel, N. Douglas, Synthesis and Biological Evaluation of EC20: A New Folate-Derived, ^99mTc-Based Radiopharmaceutical. Bioconjugate Chem. 13, 1200-1210 (2002), incorporated herein by reference. […]

Q: How did the “disease symptoms (arthritis score, paw swelling) relative to disease control” value (day 3 of therapy) turn out when abatacept: biologic therapy was run?
A: The value was “no significant difference”.

Q: And the “uptake of ^99mTc-EC20 in the affected appendages relative to disease control” value (day 3 of therapy, 150 μCi ^99mTc-EC20 i.p., imaged after 4 h)?
A: The value was “significantly less uptake”.

Q: And the “disease symptoms / joint inflammation (arthritis score, paw thickness) relative to disease control” value (day 11 of therapy)?
A: Its value is “significantly reduced inflammation”.
